Among the data in patent US20250320184A1 (SIRONAX LTD., priority 2022, published 2025) are IC50 values, retold here.

Protein sequences, listed by entry. Tags and fused reporters are not part of them. Residues count along the entry.
UniProt Q6SZW1, 50-724 limits assumed: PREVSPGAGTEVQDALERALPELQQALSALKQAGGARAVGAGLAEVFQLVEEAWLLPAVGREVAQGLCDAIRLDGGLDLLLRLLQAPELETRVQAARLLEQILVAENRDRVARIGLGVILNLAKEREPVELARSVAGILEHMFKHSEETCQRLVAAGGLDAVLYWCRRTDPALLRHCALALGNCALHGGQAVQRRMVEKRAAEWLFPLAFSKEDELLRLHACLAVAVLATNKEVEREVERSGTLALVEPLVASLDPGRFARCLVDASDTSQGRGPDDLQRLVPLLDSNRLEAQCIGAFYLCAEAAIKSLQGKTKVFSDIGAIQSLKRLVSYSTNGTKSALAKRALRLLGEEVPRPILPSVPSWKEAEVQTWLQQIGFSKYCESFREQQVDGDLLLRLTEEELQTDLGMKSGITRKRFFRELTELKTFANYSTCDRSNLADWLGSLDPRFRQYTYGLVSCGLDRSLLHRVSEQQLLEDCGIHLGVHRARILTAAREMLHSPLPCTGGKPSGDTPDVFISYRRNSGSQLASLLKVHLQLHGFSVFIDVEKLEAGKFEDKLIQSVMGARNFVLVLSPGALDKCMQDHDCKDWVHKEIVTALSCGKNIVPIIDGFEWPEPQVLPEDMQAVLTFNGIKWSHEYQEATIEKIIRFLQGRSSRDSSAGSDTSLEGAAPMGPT

In the assay the target is SARM1 (50-724) (Homo sapiens, UniProt Q6SZW1). Nature of the assay: SARM1 (50-724) enzymatic assay. To be noted: SARM1 inhibitory activity; purified SARM1 (50-724) 2 nM, 200 μM NMN activator, 100 μM NAD+ substrate, LC-MS/MS.

What is called IC50 is the concentration needed to halve the response being measured. A high value points to weaker potency. `O=C1Nc2cc(NS(=O)(=O)c3cccc(Cl)c3Cl)ccc2C12CCC2` gave a half-inhibitory concentration (IC50) of less than 100 nM.
